Experimental data reported in PubChem BioAssay (Tox21).
Values joined by “and” are separate entries in the source; they are usually repeats but may differ in a detail not shown here. Identical values can stand only once. This is a selection; strong and weak results do not stand in their true shares. Records with an inconclusive call do not appear. More than one record can exist for a structure, and the calls need not agree. Active and inactive are the calls of the source. Unless noted, the call rests on the fitted dose curve; in most records, active means well fitted curve in the direction sought with a large enough effect in the repeat runs; inconclusive means weak or mixed curves; inactive means no such curve, though single readings can be large; an effect the other way counts as inactive or inconclusive.

By UniProt entry, the sequences of proteins in these tests, tags left out.
UniProt P03372, whole entry: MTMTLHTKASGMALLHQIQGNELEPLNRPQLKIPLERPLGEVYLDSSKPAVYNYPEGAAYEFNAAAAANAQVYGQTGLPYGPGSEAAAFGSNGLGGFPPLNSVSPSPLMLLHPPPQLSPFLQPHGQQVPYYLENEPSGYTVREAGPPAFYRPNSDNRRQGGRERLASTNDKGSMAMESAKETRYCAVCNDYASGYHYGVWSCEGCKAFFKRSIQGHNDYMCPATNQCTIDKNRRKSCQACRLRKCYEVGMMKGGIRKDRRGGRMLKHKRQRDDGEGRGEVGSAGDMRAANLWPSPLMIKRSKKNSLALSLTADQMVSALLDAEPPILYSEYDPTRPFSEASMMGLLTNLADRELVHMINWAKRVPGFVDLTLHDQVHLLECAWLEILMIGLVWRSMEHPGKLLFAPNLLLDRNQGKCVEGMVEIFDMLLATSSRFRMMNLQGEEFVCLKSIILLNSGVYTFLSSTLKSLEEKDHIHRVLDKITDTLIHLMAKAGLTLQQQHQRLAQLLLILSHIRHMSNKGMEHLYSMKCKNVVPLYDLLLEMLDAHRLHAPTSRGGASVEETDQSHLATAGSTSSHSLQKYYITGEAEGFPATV
UniProt P06401, whole entry: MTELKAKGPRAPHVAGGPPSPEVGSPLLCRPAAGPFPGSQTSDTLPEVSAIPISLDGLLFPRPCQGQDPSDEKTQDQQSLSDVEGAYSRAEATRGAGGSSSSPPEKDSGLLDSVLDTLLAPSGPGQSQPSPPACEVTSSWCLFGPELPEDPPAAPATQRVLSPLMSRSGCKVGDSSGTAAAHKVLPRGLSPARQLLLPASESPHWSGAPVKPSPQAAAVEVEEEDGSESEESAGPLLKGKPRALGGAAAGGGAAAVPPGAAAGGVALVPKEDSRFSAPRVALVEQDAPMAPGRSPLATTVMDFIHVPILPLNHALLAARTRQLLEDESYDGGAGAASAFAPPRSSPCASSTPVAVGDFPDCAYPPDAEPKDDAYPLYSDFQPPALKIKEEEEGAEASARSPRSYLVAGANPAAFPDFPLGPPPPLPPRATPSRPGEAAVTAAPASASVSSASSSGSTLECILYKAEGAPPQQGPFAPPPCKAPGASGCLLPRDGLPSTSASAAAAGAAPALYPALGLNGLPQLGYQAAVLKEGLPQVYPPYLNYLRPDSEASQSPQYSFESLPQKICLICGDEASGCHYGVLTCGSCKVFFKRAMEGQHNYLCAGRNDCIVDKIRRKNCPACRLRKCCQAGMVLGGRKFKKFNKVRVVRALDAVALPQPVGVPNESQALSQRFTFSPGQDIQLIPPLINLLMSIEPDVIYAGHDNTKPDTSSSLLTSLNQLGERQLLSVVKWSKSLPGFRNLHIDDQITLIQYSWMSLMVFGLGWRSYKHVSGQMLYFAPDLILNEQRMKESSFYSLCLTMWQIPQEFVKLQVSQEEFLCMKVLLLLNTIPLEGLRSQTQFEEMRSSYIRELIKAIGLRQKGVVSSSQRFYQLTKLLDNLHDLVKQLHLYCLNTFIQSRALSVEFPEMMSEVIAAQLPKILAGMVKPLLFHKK
UniProt P34981, whole entry: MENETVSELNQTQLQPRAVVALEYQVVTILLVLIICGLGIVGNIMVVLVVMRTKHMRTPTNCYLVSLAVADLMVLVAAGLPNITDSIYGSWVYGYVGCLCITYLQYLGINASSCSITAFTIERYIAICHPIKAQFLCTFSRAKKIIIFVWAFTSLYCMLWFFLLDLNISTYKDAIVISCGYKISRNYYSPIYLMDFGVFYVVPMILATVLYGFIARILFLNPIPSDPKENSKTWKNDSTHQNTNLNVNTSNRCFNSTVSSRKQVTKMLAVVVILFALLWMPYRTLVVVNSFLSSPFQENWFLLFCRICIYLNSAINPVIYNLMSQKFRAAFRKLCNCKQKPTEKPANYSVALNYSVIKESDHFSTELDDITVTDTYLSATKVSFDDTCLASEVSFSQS
UniProt P05177, whole entry: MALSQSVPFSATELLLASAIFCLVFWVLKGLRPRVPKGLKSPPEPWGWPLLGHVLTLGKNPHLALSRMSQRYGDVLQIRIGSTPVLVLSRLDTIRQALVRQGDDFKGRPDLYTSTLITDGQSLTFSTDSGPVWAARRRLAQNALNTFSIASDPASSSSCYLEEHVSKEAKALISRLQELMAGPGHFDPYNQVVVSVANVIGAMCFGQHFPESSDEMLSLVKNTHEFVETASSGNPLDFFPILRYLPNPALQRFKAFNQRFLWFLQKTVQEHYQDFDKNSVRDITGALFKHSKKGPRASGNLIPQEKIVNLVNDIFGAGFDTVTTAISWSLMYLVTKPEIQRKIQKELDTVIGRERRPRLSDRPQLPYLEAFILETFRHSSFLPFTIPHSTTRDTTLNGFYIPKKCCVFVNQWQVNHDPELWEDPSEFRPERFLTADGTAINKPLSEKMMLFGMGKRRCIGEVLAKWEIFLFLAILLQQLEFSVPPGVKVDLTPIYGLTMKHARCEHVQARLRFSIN
UniProt Q12809, whole entry: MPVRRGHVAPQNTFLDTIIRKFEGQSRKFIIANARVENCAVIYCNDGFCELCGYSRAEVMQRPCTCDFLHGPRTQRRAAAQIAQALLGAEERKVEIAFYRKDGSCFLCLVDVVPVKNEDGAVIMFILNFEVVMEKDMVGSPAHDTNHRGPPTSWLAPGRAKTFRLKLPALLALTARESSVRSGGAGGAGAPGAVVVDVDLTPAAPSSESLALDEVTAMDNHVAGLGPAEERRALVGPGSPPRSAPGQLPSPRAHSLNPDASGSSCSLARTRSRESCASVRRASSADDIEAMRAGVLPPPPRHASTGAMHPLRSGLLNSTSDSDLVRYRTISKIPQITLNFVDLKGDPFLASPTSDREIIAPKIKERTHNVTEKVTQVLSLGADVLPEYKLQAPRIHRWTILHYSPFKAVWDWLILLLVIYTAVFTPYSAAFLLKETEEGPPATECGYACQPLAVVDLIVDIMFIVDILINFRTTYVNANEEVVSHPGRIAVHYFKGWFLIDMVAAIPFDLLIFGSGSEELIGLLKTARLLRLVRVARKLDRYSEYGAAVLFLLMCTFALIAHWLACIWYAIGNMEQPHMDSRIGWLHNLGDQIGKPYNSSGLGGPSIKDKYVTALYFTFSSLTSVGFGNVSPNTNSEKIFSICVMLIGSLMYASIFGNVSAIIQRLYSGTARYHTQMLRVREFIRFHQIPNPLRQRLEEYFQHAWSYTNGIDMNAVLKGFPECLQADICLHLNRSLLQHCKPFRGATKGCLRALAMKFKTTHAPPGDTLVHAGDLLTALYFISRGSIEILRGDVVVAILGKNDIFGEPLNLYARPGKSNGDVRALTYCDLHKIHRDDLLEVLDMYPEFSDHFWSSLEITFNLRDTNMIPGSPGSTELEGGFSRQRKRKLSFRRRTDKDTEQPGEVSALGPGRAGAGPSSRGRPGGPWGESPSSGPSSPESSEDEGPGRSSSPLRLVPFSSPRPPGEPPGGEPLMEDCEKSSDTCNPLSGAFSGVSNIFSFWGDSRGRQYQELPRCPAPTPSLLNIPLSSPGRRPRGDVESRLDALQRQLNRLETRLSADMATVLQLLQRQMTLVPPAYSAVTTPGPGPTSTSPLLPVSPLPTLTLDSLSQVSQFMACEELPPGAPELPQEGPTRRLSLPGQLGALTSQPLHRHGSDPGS
UniProt P08684, whole entry: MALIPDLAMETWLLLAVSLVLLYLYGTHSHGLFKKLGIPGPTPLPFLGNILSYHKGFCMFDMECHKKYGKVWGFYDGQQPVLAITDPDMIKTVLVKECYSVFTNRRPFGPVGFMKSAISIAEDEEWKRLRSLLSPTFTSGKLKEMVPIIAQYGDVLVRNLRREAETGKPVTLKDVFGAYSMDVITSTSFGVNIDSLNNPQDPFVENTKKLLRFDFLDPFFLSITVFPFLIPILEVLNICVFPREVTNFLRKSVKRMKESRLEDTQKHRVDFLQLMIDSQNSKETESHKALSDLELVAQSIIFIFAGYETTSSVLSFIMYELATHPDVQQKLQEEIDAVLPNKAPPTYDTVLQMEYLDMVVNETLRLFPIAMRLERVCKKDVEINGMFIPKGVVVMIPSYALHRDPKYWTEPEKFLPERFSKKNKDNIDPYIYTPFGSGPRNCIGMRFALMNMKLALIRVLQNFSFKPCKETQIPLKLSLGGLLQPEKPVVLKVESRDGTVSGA
UniProt P16473, whole entry: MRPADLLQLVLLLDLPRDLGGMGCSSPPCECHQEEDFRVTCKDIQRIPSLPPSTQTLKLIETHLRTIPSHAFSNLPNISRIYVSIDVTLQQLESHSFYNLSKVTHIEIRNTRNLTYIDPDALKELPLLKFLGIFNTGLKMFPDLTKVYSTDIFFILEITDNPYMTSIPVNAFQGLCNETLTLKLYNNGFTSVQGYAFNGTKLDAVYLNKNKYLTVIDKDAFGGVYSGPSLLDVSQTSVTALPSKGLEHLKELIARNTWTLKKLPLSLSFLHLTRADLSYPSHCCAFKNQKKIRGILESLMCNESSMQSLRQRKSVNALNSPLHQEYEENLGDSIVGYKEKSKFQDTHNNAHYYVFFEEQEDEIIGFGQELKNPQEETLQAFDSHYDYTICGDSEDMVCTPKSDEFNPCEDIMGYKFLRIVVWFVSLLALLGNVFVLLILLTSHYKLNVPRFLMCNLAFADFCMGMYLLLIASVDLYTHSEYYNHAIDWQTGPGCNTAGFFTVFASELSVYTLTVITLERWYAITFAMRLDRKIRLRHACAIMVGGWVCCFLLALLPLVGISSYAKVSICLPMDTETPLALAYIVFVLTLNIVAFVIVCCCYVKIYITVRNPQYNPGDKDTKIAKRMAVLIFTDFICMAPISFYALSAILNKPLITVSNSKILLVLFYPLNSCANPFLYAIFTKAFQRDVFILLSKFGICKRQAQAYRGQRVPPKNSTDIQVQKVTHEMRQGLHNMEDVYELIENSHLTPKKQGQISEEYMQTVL

Assays:
[1] = qHTS assay to identify small molecule antagonists of the estrogen receptor beta (ER-beta) signaling pathway - cell viability counter screen (AID 1259382); conditions: ER-beta-UAS-bla HEK293T viability, CellTiter-Glo luminescence, 16 h; at 92.4 µM (top of the series) unless noted;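 further: HEK293T cells carrying ER-beta-UAS-bla reporter stimulated with estradiol; nearly all actives have a fitted effect of over 55% in size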
In short: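 In this multiplexed counter screen, cells were seeded at 2,000 per well in medium with 2% charcoal-stripped FBS and incubated 6 hr before compound and 1nM final E2 were added. Sixteen hours later, ATP-based luminescence reported viability.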

[2] = molecular target: Estrogen receptor (Homo sapiens) (UniProt P03372); experiment: qHTS assay to identify small molecule agonists of the estrogen receptor alpha (ER-alpha) signaling pathway in the presence of an antagonist (AID 1259383; calls by dose curve; further: top concentration of the series differs between compounds; nearly all actives have a fitted effect of over 15% in size); conditions: VM7Luc4E2 cells, ERE-luciferase, +ICI-182,780, 22 h; at 92.4 µM (top of the series) unless noted
[3] = qHTS assay to identify small molecule agonists or antagonists of the thyroid stimulating hormone receptor (TSHR) signaling pathway - wild type cell line counter screen (AID 1259384; calls by dose curve); conditions: HEK293 wild type, cAMP HTRF counter-screen, stronger effect = higher value; at 92.4 µM (top of the series) unless noted
In short: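 Wild-type Hek293 cells, 800/well, 18 h at 37C, then compound with Ro20-1724 for 30 min RT. cAMP by HTRF (cAMP-d2/anti-cAMP cryptate), 1 h RT, fluorescence read. 15 concentrations, triplicates.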

[4] = molecular target: Progesterone receptor (Homo sapiens) (UniProt P06401); experiment: qHTS assay to identify small molecule antagonists of the progesterone receptor (PR) signaling pathway (AID 1346795; active means well fitted inhibition curve with a large enough effect in the signal ratio in the repeat runs, not every such curve was filed as active; the % refers to the signal ratio; further: potency means the concentration at half of the fitted maximal effect)
In short: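 Antagonist mode with agonist R5020 at 1 nM final and 16 hr incubation at 37C. Reporter was beta-lactamase driven by UAS in HEK293T (PR-UAS-bla), 2% charcoal-stripped serum; signal from LiveBLAzer FRET substrate, 2 hr at room temperature.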

[5] = qHTS assay to identify small molecule antagonists of the progesterone receptor (PR) signaling pathway - cell viability counter screen (AID 1346798); conditions: PR-UAS-bla HEK293T viability, CellTiter-Glo luminescence, 16 h; further: nearly all actives have a fitted effect of over 50% in size
In short: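 Cytotoxicity read as CellTiter-Glo luminescence (30 min, room temperature) in the same wells as the beta-lactamase readout. HEK293T PR-UAS-bla cells in charcoal-stripped 2% FBS received compound and R5020, then 16 h at 37C, 5% CO2.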

[6] = qHTS assay to identify small molecule agonists of the TGF-beta/Smad signaling pathway - cell viability counter screen (AID 1346829); conditions: SBE-bla HEK293T viability, CellTiter-Glo luminescence, 5 h; at 76.8 µM (top of the series) unless noted; further: top concentration of the series differs between compounds; nearly all actives have a fitted effect of over 45% in size
In short: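 Same-well cytotoxicity: CellTiter-Glo added after the 2 hr room-temperature beta-lactamase substrate step, luminescence measured 30 min later; cells had 5 hr of compound at 37 C.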

[7] = molecular target: Thyrotropin-releasing hormone receptor (Homo sapiens) (UniProt P34981); experiment: qHTS assay to identify small molecule antagonists of the thyrotropin-releasing hormone receptor (TRHR) signaling pathway (AID 1346877; active means well fitted inhibition curve with a large enough effect in the repeat runs, not every such curve was filed as active)
[8] = molecular target: Thyrotropin-releasing hormone receptor (Homo sapiens) (UniProt P34981); experiment: qHTS assay to identify small molecule agonists of the thyrotropin-releasing hormone receptor (TRHR) signaling pathway (AID 1346891; calls by dose curve;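 further: HEK293 cells expressing TRHR with calcium dye readout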); conditions: TRHR-HEK293 calcium fluorescence, agonist mode
[9] = Human pregnane X receptor (PXR) small molecule agonists, qHTS cell viability counter screen (AID 1346977); further: nearly all actives have a fitted effect of over 50% in size; further: potency means the concentration at half of the fitted maximal effect
In short: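 Same-well viability read: CellTiter-Fluor added after 23 hr compound exposure, fluorescence measured 1 hr later. Cells were PXR-Luc HepG2 seeded at 2,000/well in 5% charcoal-stripped FBS medium, rested 5 hr before dosing at 37 C.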

[10] = Caspase-3/7 induction in HepG2 cells by small molecules, qHTS assay (AID 1346978); conditions: HepG2 caspase-3/7 activation, Caspase-Glo luminescence, 17 h; at 92.4 µM (top of the series) unless noted; further: nearly all actives have a fitted effect of over 15% in size
In short: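 Wild-type HepG2 cells, 2,000/well, settled 5 hr at 37 C and 5% CO2, then compound-treated for 17 hr; caspase-3/7 activity read by luminescent Caspase-Glo 3/7 after 30 min at room temperature.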

[11] = Caspase-3/7 induction in CHO-K1 cells by small molecules, qHTS assay (AID 1346980); further: nearly all actives have a fitted effect of over 15% in size; further: potency means the concentration at half of the fitted maximal effect
In short: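 Wild-type CHO-K1 cells exposed to compounds for 17hr at 37 C, 5% CO2. Caspase-3/7 activity then measured by Caspase-Glo 3/7 luminescence after 30min at room temperature.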

[12] = molecular target: Cytochrome P450 1A2 (Homo sapiens) (UniProt P05177); experiment: Cytochrome P450 Family 1 Subfamily A Member 2 (CYP1A2) small molecule antagonists: luciferase reporter qHTS assay (AID 1671199); further: nearly all actives have a fitted effect of over 50% in size; further: potency means the concentration at half of the fitted maximal effect
[13] = molecular target: Voltage-gated inwardly rectifying potassium channel KCNH2 (Homo sapiens) (UniProt Q12809); experiment: Human Ether-a-go-go-Related Gene (hERG) channel small molecule antagonists: fluorescence cell-based qHTS assay (AID 1671200); further: nearly all actives have a fitted effect of over 50% in size; further: potency means the concentration at half of the fitted maximal effect
In short: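 Thallium flux as potassium surrogate: FluxOR II dye loaded 1 h at room temperature into hERG-expressing U2OS cells, then stimulus buffer added after 10 min. Kinetic 480 nm excitation/540 nm emission read, 2 min.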

[14] = molecular target: Cytochrome P450 3A4 (Homo sapiens) (UniProt P08684); experiment: Cytochrome P450 Family 3 Subfamily A Member 4 (CYP3A4) small molecule antagonists: luciferase reporter qHTS assay (AID 1671201); further: nearly all actives have a fitted effect of over 50% in size
In short: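 Recombinant human CYP3A4 converts a proluciferin substrate to luciferin over 1 h at room temperature after NADPH regeneration solution is added (compound preincubated 10 min); detection reagent stops reaction, luminescence read 20 min later as relative units.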

[15] = molecular target: Thyrotropin receptor (Homo sapiens) (UniProt P16473); experiment: qHTS assay to identify small molecule antagonists of the thyroid stimulating hormone receptor (TSHR) signaling pathway (AID 1259385; calls by dose curve; further: nearly all actives have a fitted effect of over 20% in size); conditions: TSHR-HEK293 cAMP HTRF, TSH-stimulated antagonist mode; at 92.4 µM (top of the series)
[16] = qHTS assay to identify small molecule agonists of the estrogen receptor alpha (ER-alpha) signaling pathway in the presence of an antagonist - cell viability counter screen (AID 1259386); conditions: VM7Luc4E2 viability, CellTiter-Fluor fluorescence, 22 h; at 92.4 µM (top of the series);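 further: cells exposed to compounds for 22 h at 37 °C before the viability read; nearly all actives have a fitted effect of over 30% in size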
In short: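 Viability counter screen using VM7Luc4E2 (full-length ER-alpha, four ERE-luciferase). The cells were treated with compounds alongside ICI-182,780 10.0nM for 22hr, and live-cell protease fluorescence was quantified with CellTiter-Fluor.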

[17] = Caspase-3/7 induction in CHO-K1 cells by small molecules, qHTS cell viability counter screen (AID 1346979); further: nearly all actives have a fitted effect of over 35% in size
In short: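 Cytotoxicity counter screen: CellTiter-Fluor added to compound-treated wild-type CHO-K1 cells at 16 h (37C, 5% CO2), fluorescence measured 1 h later; same wells as caspase-3/7 measurement.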

[18] = Caspase-3/7 induction in HepG2 cells by small molecules, qHTS cell viability counter screen (AID 1346981); conditions: CellTiter-Fluor fluorescence, 17 h, at 92.4 µM (top of the series); further: nearly all actives have a fitted effect of over 30% in size
In short: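 Viability determined by CellTiter-Fluor fluorescence in HepG2 wells also used for the luminescent Caspase-Glo 3/7 read. Compounds were present for 16 hr at 37 C, 5% CO2 before reagent addition.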
On the % scale 0 is the no-effect control and ±100 the full control effect.

Compound	activity change, negative = cytotoxicity [1]	activation [2]	cAMP activity change [3]	Potency [4]	activity change, negative = cytotoxicity ([5]; at 42.5 µM (top of the series))	activity change, negative = cytotoxicity [6]	Potency [7]	activation ([8]; at 26.5 µM (top of the series))	Potency [9]	caspase activation [10]	Potency [11]	Potency [12]	Potency [13]	Potency [14]	activity change, negative = inhibition [15]	activity change, negative = cytotoxicity [16]	activity change, negative = cytotoxicity ([5]; at 92.4 µM (top of the series))	activation ([8]; at 57.6 µM (top of the series))	Potency [17]	activity change, negative = cytotoxicity [18]
CCOP(=O)(CC)Oc1ccc([N+](=O)[O-])cc1 (stereo not drawn)	inactive: -3.61% [at 42.5 µM]	inactive: 1.01% [at 42.5 µM]	inactive: -7.7% [at 42.5 µM]	active: 9.44 µM	inactive: -22.3%	inactive: -31.2% [at 35.3 µM]	inactive	inactive: -0.0042%	inactive	inactive: -1.87% [at 42.5 µM]	inactive	inactive	inactive	inactive						
O=[N+]([O-])OCC(CO[N+](=O)[O-])(CO[N+](=O)[O-])CO[N+](=O)[O-]	inactive: 13.7%	inactive: 0.975%	inactive: -3.4%	inactive		inactive: -0.485%	inactive			inactive: -0.466%	inactive	active: 35.6 µM	inactive	inactive	inactive: 4.2%	inactive: 0.537%	inactive: -1.16%	inactive: -0.172%	inactive	inactive: -1.43%
COc1ccc([N+](=O)[O-])cc1[N+](=O)[O-]	inactive: 8.69%	inactive: -1.4%	inactive: -0.0677%	inactive		inactive: -23.7%	inactive		inactive	inactive: 0.922%	inactive	active: 10 µM	inactive	inactive	inactive: -0.386%	inactive: 0.371%	inactive: 0.38%	inactive: 0.169%	inactive	inactive: -0.0118%
Cc1ccc([N+](=O)[O-])cc1[N+](=O)[O-]	inactive: -4.52% and inactive: 0.093%	inactive: -2.29% and inactive: 0.864%	inactive: 2.64%	inactive		inactive: -17.9% and inactive: -0.28%	inactive		active: 20 µM and inactive		active: 53.7 µM and inactive	active: 22.1 µM and active: 22.4 µM	active: 48.3 µM and inactive	inactive		inactive: -0.273% and inactive: 3.15%	inactive: 0.411%	inactive: 0.233% and inactive: -0.257%		
